Measured values: patent US11555009B2, “2-(substituted benzene matrix) aromatic formate FTO inhibitor, preparation method therefor, and applications thereof” (SHANGHAI INSTITUTE OF MATERIA MEDICA, CHINESE ACADEMY OF …, priority 2017, dated 2023)

The chains behind the UniProt entries cited, without tags or fusion partners.
UniProt Q9C0B1, whole entry: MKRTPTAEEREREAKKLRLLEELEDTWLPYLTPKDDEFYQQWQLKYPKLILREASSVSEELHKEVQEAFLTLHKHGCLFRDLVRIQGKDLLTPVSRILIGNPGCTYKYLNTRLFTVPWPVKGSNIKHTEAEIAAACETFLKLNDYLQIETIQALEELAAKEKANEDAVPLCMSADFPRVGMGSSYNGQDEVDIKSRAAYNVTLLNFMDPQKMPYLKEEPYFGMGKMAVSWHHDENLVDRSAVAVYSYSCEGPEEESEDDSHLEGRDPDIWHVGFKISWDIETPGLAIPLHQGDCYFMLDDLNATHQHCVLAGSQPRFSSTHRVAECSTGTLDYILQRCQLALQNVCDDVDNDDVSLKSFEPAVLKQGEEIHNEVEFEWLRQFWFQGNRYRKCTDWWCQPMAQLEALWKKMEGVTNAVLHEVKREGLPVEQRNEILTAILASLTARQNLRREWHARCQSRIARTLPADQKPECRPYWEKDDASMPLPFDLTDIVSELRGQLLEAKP

Target: FTO (Homo sapiens (Human), UniProt Q9C0B1)
Experiment: FTO enzyme inhibition (m6A dsDNA substrate, DpnII digestion, gel readout)
Format: biochemical

- Inhibition rate (in vitro inhibition rate on FTO, compound at 50 μM): 100%
- IC50 (read-out: IC50 for inhibition of FTO enzyme activity): < 5 µM
SMILES: Cc1cc(-c2cn[nH]c2)cc(C)c1Nc1ccccc1C(=O)O
